# scFv variants of Ab-14 (light chain) against a SARS-CoV-2 spike peptide

From the AlphaSeq antibody data of Engelhart et al. 2022 (doi:10.1038/s41597-022-01779-4), copy in the FLAb collection.

All variants were tested on one target, the spike HR2 peptide PDVDLGDISGINAS (SARS-CoV-2).

Parent: Ab-14, a human scFv built as VH, a 15-residue (Gly4Ser)3 linker, VL. Only the CDRs of the light chain vary.
VH: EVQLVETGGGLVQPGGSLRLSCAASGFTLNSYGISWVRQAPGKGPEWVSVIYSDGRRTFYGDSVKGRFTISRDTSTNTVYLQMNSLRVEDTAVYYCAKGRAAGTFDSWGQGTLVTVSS
VL: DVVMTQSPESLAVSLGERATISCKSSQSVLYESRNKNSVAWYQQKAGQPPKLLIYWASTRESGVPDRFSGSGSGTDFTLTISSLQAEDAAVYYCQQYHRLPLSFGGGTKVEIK

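Phage display of a naive human antibody library on the peptide gave the parent. Variants in AAYL50 differ from the parent at up to three CDR positions; double and triple changes were sampled at random. The scFvs were displayed on barcoded MATa yeast, the peptide on MATalpha yeast. The frequency of each diploid, read from paired DNA barcodes, reflects how well the two displayed proteins bind. Scores were corrected for input abundance and mapped to Kd with protein pairs of known affinity run in the same pool. Mating was done three times.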

Each variant is given by its three light chain CDRs, as the data file delimits them; those of the parent are KSSQSVLYESRNKNSVA, WASTRES, QQYHRLPLS. All variants listed here change Q27 of the VL, counted from its first residue. Each Kd is an estimate from the mating assay, the geometric mean of the replicates in which the pair was seen; lower is stronger. "nd" marks a missing value. The strain was present, yet no cells mated with the target were sequenced in any replicate, which points to weak or no binding. In this assay the parent's reference entry averaged 4.4 nM; its copy inside this library read 48 nM. Nonspecific signal, from three strains lacking the peptide, appeared in 18% of pairings of library AAYL50, centred on 15 µM (5% of these signals below 970 nM); values are not corrected for it. The control count says in how many pairings with the empty strains this scFv gave a signal.

Variant KSSASVLYESRNKNSVA / WASTRES / QQEHRLPLS showed 13 nM (3 of 3 replicates; controls 3 of 9). For KSSVSVLYESRNKNSVA / WAYTRES / QQYHTLPLS, the assay gave 140 nM (3 of 3 replicates; controls 0 of 9). Variant KSSTSVLYESRNKNSVA / WASIRES / QQYDRLPLS gave 13 nM (3 of 3 replicates; controls 1 of 9). For KSSLSVLYESRNKNSVA / WASTRES / QQTHLLPLS, the assay gave 14 nM (3 of 3 replicates; controls 1 of 9). Variant KSSMSVLYESRNLNSVA / DASTRES / QQYHRLPLS showed 560 pM (3 of 3 replicates; controls 8 of 9). Variant KSSYSVLMESRNKHSVA / WASTRES / QQYHRLPLS showed 100 nM (3 of 3 replicates; controls 2 of 9). With KSSCSVLYESRNKNSVA / WASTRES / QQYHLLELS the result was 300 nM (3 of 3 replicates; controls 0 of 9). With KSSDSVLYESRNKNSVA / WASTREW / QQYHRLELS the result was 17 nM (3 of 3 replicates; controls 1 of 9). For KSSHSSLWESRNKNSVA / WASTRES / QQYHRLPLS, the assay gave 400 pM (3 of 3 replicates; controls 1 of 9).

Variant KSSRSVLYESRYKNSVA / WASTRES / QQYHVLPLS showed 92 nM (3 of 3 replicates; controls 0 of 9). With KSSYSVLYESRNKNSVA / WASTRES / QQYHRLPLS the result was 5.4 µM (2 of 3 replicates; controls 0 of 9). Variant KSSDSVLYESRNKNSVA / WASERES / QQYHGLPLS showed 5.3 nM (3 of 3 replicates; controls 5 of 9). Variant KSSWSVLYEFRNKNSVA / WASTAES / QQYHRLPLS gave 680 nM (1 of 3 replicates; controls 0 of 9). For KSSSSVLYEFRNKNSVA / WASTRES / QQYHRLPLS, the assay gave 120 nM (3 of 3 replicates; controls 5 of 9). Variant KSSRSVLYESRNKNSVA / WASTRES / QQYHSLPLS gave 21 nM (3 of 3 replicates; controls 0 of 9). For KSSNSVLYESRNKGSFA / WASTRES / QQYHRLPLS, the assay gave nd (0 of 3 replicates; controls 0 of 9). Variant KSSISVLYASRNKNSVA / WASTRES / QQYHRLPLK showed 360 nM (1 of 3 replicates; controls 0 of 9). With KSSKSVLYESRNKNSVA / WASTRES / QQYTRLPNS the result was 360 nM (3 of 3 replicates; controls 1 of 9).

Variant KTSYSVLCESRNKNSVA / WASTRES / QQYHRLPLS showed 39 nM (3 of 3 replicates; controls 1 of 9). With KSSTSVLYWSRNKQSVA / WASTRES / QQYHRLPLS the result was 67 nM (3 of 3 replicates; controls 1 of 9). With FSSASVLYESRNPNSVA / WASTRES / QQYHRLPLS the result was 340 nM (3 of 3 replicates; controls 1 of 9). With KSDNSVLYESRNKNSVY / WASTRES / QQYHRLPLS the result was 11 µM (1 of 3 replicates; controls 2 of 9). Variant KSSCSVLYESRNKNSSA / WASTRES / QQYHRLPLS showed nd (0 of 3 replicates; controls 0 of 9). With KSSHSVLYEERNKNSVA / WASTRES / QWYHRLPLS the result was 710 nM (3 of 3 replicates; controls 0 of 9). Variant KSSTSVLYESRNKNSVA / WADTRES / QQYHRLPLS gave 28 nM (3 of 3 replicates; controls 0 of 9). With CSSSSVLYASRNKNSVA / WASTRES / QQYHRLPLS the result was 66 nM (3 of 3 replicates; controls 0 of 9). For KSSLSVLYESRNKNSVA / WASTRES / GQYHRLPLS, the assay gave 48 µM (1 of 3 replicates; controls 0 of 9).

Variant KSSLSVLYESRNKNSVA / WASTRES / YQGHRLPLS gave 110 µM (1 of 3 replicates; controls 2 of 9). For KSSVSVLYESCNKNSVA / WASTIES / QQYHRLPLS, the assay gave 38 µM (1 of 3 replicates; controls 3 of 9). For KSSMSGLYVSRNKNSVA / WASTRES / QQYHRLPLS, the assay gave 4.7 nM (3 of 3 replicates; controls 3 of 9). For KSSVSVLYESRNKNSVA / WASLRES / QQYHRLPQS, the assay gave nd (0 of 3 replicates; controls 0 of 9). Variant KSSGSVLYESRNKNSVA / WASTRES / DQYHRLPLS showed 480 nM (1 of 3 replicates; controls 0 of 9). Variant VSSRGVLYESRNKNSVA / WASTRES / QQYHRLPLS showed 530 nM (3 of 3 replicates; controls 2 of 9). Variant KSSDSELYESRNKNSVA / WASTRES / QQYHRLPLS showed 3.2 nM (3 of 3 replicates; controls 5 of 9). Variant KSSVSVRYESRNKNSVA / WASTFES / QQYHRLPLS gave 38 µM (2 of 3 replicates; controls 1 of 9). For KSSYSVLYWSRNKNSVA / WASTRGS / QQYHRLPLS, the assay gave nd (0 of 3 replicates; controls 0 of 9).

For KSSISVLYYSRNKNWVA / WASTRES / QQYHRLPLS, the assay gave 6.3 µM (1 of 3 replicates; controls 3 of 9). With KSSASVFYESRNKNSVA / WASTRES / QQAHRLPLS the result was 25 µM (2 of 3 replicates; controls 3 of 9). With KTSWSVLYESRNKNSVA / WASTRES / QQYHMLPLS the result was 39 nM (3 of 3 replicates; controls 3 of 9). With KSSGSVLYESRFKNSVA / WASTRES / QQYHRAPLS the result was 8.5 nM (3 of 3 replicates; controls 0 of 9). Variant KSSFSVLYESRNKNSVA / WASHRES / QQYHRLKLS showed nd (0 of 3 replicates; controls 0 of 9). Variant KSSYSVLYESRNKNSVA / WPSTRES / QQMHRLPLS gave 20 µM (3 of 3 replicates; controls 1 of 9). Variant KSSTSVLCESRNKNSVA / WASTRES / QQYHRDPLS showed 2.7 µM (3 of 3 replicates; controls 0 of 9). Variant KSSNSWLYESRNKNSVA / WASTRES / QQYHRLPLD showed 31 nM (3 of 3 replicates; controls 3 of 9). Variant KSSESVLRESRNKNSVA / WASTRES / QQYHRLPFS showed 39 nM (2 of 3 replicates; controls 0 of 9).

With KSSASVLYESRNKNSVA / WASTRES / QQYHRLPLS the result was 280 nM (3 of 3 replicates; controls 0 of 9). Variant KSSPSVTYESFNKNSVA / WASTRES / QQYHRLPLS gave 34 nM (3 of 3 replicates; controls 0 of 9). For KSSFSVLYESRNKNSVS / WASTRES / GQYHRLPLS, the assay gave 14 µM (1 of 3 replicates; controls 2 of 9). With KSSSQVLYESRNKNSVA / WASTRES / QQYHPLPLS the result was nd (0 of 3 replicates; controls 1 of 9). For KSQMSVLVESRNKNSVA / WASTRES / QQYHRLPLS, the assay gave 4.0 nM (3 of 3 replicates; controls 0 of 9). With KSSPSVAYESRNKNSVA / WASTRES / WQYHRLPLS the result was 1.6 µM (1 of 3 replicates; controls 0 of 9). Variant KESRSVLYESRNKNSVA / WASTRES / IQYHRLPLS gave 2.7 µM (1 of 3 replicates; controls 1 of 9).

A selection of 7 entries from above:

| CDR-L1 | CDR-L2 | CDR-L3 | Kd | replicates with signal | signal with controls |
|---|---|---|---|---|---|
| KSSLSVLYESRNKNSVA | WASTRES | YQGHRLPLS | 110 µM | 1/3 | 2/9 |
| KSSVSVLYESCNKNSVA | WASTIES | QQYHRLPLS | 38 µM | 1/3 | 3/9 |
| KSSISVLYYSRNKNWVA | WASTRES | QQYHRLPLS | 6.3 µM | 1/3 | 3/9 |
| KSSASVLYESRNKNSVA | WASTRES | QQYHRLPLS | 280 nM | 3/3 | 0/9 |
| KSSYSVLMESRNKHSVA | WASTRES | QQYHRLPLS | 100 nM | 3/3 | 2/9 |
| KSSHSSLWESRNKNSVA | WASTRES | QQYHRLPLS | 400 pM | 3/3 | 1/9 |
| KSSDSVLYESRNKNSVA | WASTREW | QQYHRLELS | 17 nM | 3/3 | 1/9 |